From patent US8722887B2, “Sulfonylpyrazole and sulfonylpyrazoline carboxamidine derivatives as 5-HT6 antagonists” (Abbvie Bahamas, Ltd., priority 2006, dated 2014)
Where two headings read alike, the source gives them in different places.

By UniProt entry, the sequences of proteins in these tests, tags left out.
UniProt P50406, whole entry: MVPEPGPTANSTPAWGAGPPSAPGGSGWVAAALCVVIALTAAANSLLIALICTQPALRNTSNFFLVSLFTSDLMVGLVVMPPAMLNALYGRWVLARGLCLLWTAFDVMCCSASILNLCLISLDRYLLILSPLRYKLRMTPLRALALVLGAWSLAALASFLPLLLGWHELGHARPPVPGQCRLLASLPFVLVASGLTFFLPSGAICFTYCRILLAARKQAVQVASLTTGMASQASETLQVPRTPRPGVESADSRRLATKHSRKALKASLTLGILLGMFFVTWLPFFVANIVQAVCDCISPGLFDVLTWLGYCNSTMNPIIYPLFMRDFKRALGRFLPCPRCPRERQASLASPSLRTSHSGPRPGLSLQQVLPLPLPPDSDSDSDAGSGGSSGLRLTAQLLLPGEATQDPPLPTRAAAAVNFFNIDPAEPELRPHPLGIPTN

Experiments:
5-HT6 receptor [1] = target: T1, 5-HT6 receptor (Homo sapiens, UniProt P50406); assay: In vitro functional activity (antagonism) on human 5-HT6 receptors, CHO-human-5HT6-Aequorin assay; format: cell-based; parameters: host or cells: CHO/Gα16/mtAEQ/h5HT6-A1 (CHO AequoScreen recombinant cell line)
5-HT6 receptor [2] = target: T1, 5-HT6 receptor; assay: In vitro affinity for human 5-HT6 receptors, [3H]-LSD binding in CHO cell membranes; parameters: host or cells: CHO/Gα16/mtAEQ/h5HT6-A1 (CHO AequoScreen recombinant cell line); conditions: 5-HT6 pKi
[3] = 5-HT6 pA2, antagonism of 10^-8 M α-methylserotonin induced luminescence, CHO-human-5HT6-Aequorin cells

| SMILES | Kb (5-HT6 receptor [1]; [3]) | Ki (5-HT6 receptor [2]) | Kb (5-HT6 receptor [1]) |
| --- | --- | --- | --- |
| CCN/C(=N\S(=O)(=O)c1cccc(F)c1)N1CC(CC)C=N1 (stereo not shown) [compound 25] | 10 nM | 15.8 nM |  |
| CCN/C(=N\S(=O)(=O)c1ccccc1)N1CC(C)(C)C=N1 [compound 175] |  |  | 158 nM |
| CCN/C(=N\S(=O)(=O)c1ccc(Cl)s1)N1CC(CC)C=N1 (single isomer, unassigned; (-)) [(−)-82] | 2 nM | 10 nM |  |
| CCN/C(=N\S(=O)(=O)c1ccc(Cl)s1)N1CC(CC)C=N1 (single isomer, unassigned; (+)) [(+)-82] | 0.794 nM | 2.51 nM |  |
